Data from patent US20030088061A1, “Materials and methods to modulate ligand binding/enzymatic activity of alpha/beta proteins containing an allosteric regulatory site” (priority 2000, published 2003).

Key:
[1] = target: iC3b (Homo sapiens (Human)) (UniProt P01024); assay: adhesion of COS-7 transfectants (CD18 + CD11b) to immobilized iC3b, crystal violet
[2] = target: ICAM-1/Fc (Homo sapiens (Human)) (UniProt P05362); assay: adhesion of COS-7 transfectants (CD18 + CD11b) to immobilized ICAM-1/Fc, crystal violet, relative to capture on CD18 + CD11b antibodies

wild type CD11b/CD18 (Mac-1) (from UniProt P11215) (receptor)
% of cell binding [1]: 26.4% | % of cell binding [2]: 3.1%
